Legend:
Format in all cases: cell-based
[1] = tested on: Oocyte; assay: Activity at rat GABA-A receptor alpha1beta2gamma2L expressed in Xenopus oocytes assessed as potentiation of GABA-induced chloride current at 0.1 uM by electrophysiological Method relative to control
In short: (§1)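 Oocytes expressing rat α1β2γ2L GABA-A receptors were recorded whole-cell. Compound at 0.1, 1 or 10 µM was co-applied with 2 µM GABA. Response is the current ratio with/without compound. At least four different oocytes per concentration; mean ± SEM.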

[2] = tested on: Oocyte; assay: Activity at rat GABA-A receptor alpha1beta2gamma2L expressed in Xenopus oocytes assessed as potentiation of GABA-induced chloride current at 1 uM by electrophysiological Method relative to control; in short: as §1
[3] = tested on: Oocyte; assay: Activity at rat GABA-A receptor alpha1beta2gamma2L expressed in Xenopus oocytes assessed as increase in chloride current at 10 uM by electrophysiological Method relative to GABA
In short: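 Direct gating measured without GABA. Current evoked by 10 µM steroid applied alone to oocytes expressing rat α1β2γ2L GABA-A receptors, expressed as a ratio to the current evoked by 2 µM GABA. Whole-cell recording. At least four oocytes per compound; mean ± SEM.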

[4] = tested on: Oocyte; assay: Activity at rat GABA-A receptor alpha1beta2gamma2L expressed in Xenopus oocytes assessed as potentiation of GABA-induced chloride current at 10 uM by electrophysiological Method relative to control; in short: as §1

| Structure (SMILES) | fold change (FC) [1] | fold change (FC) [2] | fold change (FC) [3] | fold change (FC) [4] |
| --- | --- | --- | --- | --- |
| C[C@]12CC[C@@H](O)C[C@@H]1CC[C@@H]1[C@@H]2C(=O)C[C@]2(C)/C(=C/C#N)CC[C@@H]12 | 0.79 | 0.77 | 0.02 | 1.82 |
| C[C@]12CC[C@@H](O)C[C@@H]1CC[C@@H]1[C@@H]2C(=O)C[C@]2(C)/C(=C\C#N)CC[C@@H]12 | 1.17 | 5.06 | 0.17 | 21.5 |

Reference: ChEMBL document CHEMBL1781933, “Neurosteroid analogues. 16. A new explanation for the lack of anesthetic effects of δ(16)-alphaxalone and identification of a δ(17(20)) analogue with potent anesthetic activity” (J Med Chem, 2011)
